Data as given in ChEMBL document CHEMBL1132669, “New generation dopaminergic agents. 7. Heterocyclic bioisosteres that exploit the 3-OH-phenoxyethylamine D2 template” (Bioorg Med Chem Lett, 1999).

The chains behind the UniProt entries cited, without tags or fusion partners.
UniProt P61169, whole entry: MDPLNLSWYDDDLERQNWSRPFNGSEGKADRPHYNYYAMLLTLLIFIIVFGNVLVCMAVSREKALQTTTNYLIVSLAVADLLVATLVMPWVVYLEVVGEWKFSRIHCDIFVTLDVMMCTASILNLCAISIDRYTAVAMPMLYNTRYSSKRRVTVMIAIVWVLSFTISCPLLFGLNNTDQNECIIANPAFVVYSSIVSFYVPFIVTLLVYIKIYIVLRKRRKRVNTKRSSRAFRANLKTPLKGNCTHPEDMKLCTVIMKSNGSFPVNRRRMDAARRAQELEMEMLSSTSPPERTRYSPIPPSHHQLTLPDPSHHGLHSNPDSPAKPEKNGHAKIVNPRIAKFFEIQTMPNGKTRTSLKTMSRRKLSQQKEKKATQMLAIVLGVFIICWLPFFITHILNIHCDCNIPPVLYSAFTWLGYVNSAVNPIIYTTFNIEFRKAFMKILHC
UniProt P14416, whole entry: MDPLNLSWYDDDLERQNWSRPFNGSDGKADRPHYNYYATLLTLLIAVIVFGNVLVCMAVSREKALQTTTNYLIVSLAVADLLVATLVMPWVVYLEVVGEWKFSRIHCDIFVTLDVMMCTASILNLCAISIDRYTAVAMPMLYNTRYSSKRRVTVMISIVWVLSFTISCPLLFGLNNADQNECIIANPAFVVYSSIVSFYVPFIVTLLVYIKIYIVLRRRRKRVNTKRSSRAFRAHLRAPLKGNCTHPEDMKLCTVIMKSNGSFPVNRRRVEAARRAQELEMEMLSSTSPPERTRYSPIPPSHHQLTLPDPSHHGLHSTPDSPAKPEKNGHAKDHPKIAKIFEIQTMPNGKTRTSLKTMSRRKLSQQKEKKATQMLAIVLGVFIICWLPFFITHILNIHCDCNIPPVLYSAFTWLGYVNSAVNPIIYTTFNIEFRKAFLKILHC
UniProt P35462, whole entry: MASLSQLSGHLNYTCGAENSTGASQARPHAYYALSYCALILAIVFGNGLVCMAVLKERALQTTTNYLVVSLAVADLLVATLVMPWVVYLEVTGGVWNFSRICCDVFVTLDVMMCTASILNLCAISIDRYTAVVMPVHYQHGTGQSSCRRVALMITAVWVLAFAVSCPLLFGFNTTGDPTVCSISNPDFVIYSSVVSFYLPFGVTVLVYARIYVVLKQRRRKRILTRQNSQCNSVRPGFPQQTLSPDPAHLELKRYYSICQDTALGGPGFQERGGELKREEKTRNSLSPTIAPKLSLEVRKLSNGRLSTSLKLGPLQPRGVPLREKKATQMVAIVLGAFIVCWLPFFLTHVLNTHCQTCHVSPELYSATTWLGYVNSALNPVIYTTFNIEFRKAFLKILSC

Assays:
[1] = target: D(2) dopamine receptor (Rattus norvegicus) (UniProt P61169); experiment: Relative binding affinity for low and hugh affinity type dopamine D2 receptors in rat striatal membranes; assay type: cell membranes; conditions: Striatum, Membrane
D(2) dopamine receptor = D(2) dopamine receptor (Homo sapiens, UniProt P14416); experiment: Inhibition of [3H]spiperone binding to human Dopamine receptor D2 in CHO cell membranes
D(3) dopamine receptor = D(3) dopamine receptor (Homo sapiens, UniProt P35462); experiment: Inhibition of [3H]spiperone binding to human Dopamine receptor D3 in CHO cell membranes

SMILES	Ratio [1]	Ki (D(2) dopamine receptor) [nM]	Ki (D(3) dopamine receptor) [nM]
Oc1nc2c(OCCNCc3ccccc3)cccc2[nH]1	18		
O=c1[nH]c2cccc(OCCNCc3ccccc3)c2[nH]1		3.9	4.1
